Molecular target: Mu-type opioid receptor (Homo sapiens, UniProt P35372)
Test: Agonist activity at Mu-type opioid receptor
Type: functional

Sequences of proteins named here, by UniProt entry; tags and fusion partners are left off.
UniProt P35372, whole entry: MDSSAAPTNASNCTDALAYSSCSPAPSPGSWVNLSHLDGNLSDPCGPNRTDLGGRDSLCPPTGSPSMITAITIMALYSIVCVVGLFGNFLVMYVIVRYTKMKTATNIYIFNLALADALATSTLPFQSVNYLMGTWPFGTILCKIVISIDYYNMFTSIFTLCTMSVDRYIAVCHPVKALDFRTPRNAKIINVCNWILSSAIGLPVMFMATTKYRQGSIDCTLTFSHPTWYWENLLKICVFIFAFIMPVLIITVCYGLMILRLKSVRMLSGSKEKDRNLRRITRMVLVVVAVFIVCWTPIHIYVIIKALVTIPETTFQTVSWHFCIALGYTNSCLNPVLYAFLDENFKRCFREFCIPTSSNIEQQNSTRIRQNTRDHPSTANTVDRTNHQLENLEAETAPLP

Work on `C[C@@H](NC(=O)[C@@H](N)Cc1ccc(O)cc1)C(=O)N[C@@H](Cc1ccccc1)C(=O)NCC(=O)N[C@@H](Cc1ccc(O)cc1)C(=O)N1CCC[C@H]1C(=O)N[C@@H](CO)C(N)=O` [DERMORPHIN] yielded an IC50 of 2.4 nM.

Source: ChEMBL document CHEMBL1833812, “Synthesis, biological evaluation, and automated docking of constrained analogues of the opioid peptide H-Dmt-D-Ala-Phe-Gly-NH₂ using the 4- or 5-methyl substituted 4-amino-1,2,4,5-tetrahydro-2-benzazepin-3-one scaffold” (J Med Chem, 2011)
